Results on one compound are retold here after patent publication US20260001862A1, “QUINOXALINEDIONE AND PYRIDO[2,3-B]PYRAZINE-2,3-DIONE B CELL LYMPHOMA 6 (BCL6) DEGRADERS AND USES THEREOF” (DANA-FARBER CANCER INSTITUTE, INC., priority 2022, published 2026).

The test concerns the target Endogenous BCL6 (Homo sapiens, UniProt P41182). As to the kind of experiment: HiBiT cellular degradation assay in SU-DHL-4 cells. As to conditions: read-out: HiBiT SU-DHL-4 DC50, 24 hours of compound treatment, concentration to reach 50% degradation. The protocol: DC50 (concentration to reach 50% degradation) values were determined from a cellular degradation assay (HiBiT, Promega™) in Su-DHL-4 cells (Table 1). Endogenous BCL6 was tagged with the 11-amino acid SmBiT through CRISPR/Cas9 gene editing and single cell clone selection. After 24 hours of compound treatment, cells were lysed and incubated with LgBiT protein to reconstitute intact nanoluciferase. Substrate was then added and relative luciferase units were measured. Degradation levels for each treatment were taken as a percentage compared to the control, 100% DMSO (Prism).

In the case of `C[C@@H]1C[C@H](C)CN(c2ncc(Cl)c(Nc3ccc4c(c3)n(CC[C@H](C)O)c(=O)c(=O)n4C)n2)C1`, the DC50 is 41 nM.
